We go through 6 molecules from US20190337910A1, “ALLOSTERIC MODULATORS OF NICOTINIC ACETYLCHOLINE RECEPTORS” (MERCK SHARP & DOHME CORP., priority 2016, published 2019).

The chains behind the UniProt entries cited, without tags or fusion partners. Residues count along the entry.
UniProt P36544, 23-502 limits assumed: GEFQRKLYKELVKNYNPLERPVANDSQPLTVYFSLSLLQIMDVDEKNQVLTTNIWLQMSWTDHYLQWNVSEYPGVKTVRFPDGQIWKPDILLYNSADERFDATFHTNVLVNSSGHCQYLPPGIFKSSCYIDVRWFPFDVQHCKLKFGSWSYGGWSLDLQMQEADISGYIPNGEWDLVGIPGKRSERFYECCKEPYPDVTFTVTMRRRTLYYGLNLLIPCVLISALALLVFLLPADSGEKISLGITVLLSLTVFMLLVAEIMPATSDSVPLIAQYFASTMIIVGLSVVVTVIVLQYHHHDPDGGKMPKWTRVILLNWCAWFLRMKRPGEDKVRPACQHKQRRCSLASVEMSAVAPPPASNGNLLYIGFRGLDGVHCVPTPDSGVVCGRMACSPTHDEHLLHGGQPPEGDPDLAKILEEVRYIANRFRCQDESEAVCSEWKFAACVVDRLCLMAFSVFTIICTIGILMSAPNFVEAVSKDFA

This assay concerns the target human α7 nAChR stably expressed in a HEK cell line (with human RIC-3) (Homo sapiens, UniProt P36544). In words: Automated patch-clamp electrophysiology functional assay (Assay A), IonFlux HT, whole-cell population patch. On the procedure:
The α7 nAChR positive allosteric modulator (PAM) activity of the present compounds may be tested using assays known in the art. The α7 nAChR PAMs described herein have activities in an automated patch-clamp electrophysiology functional assay as described in the examples. The assay was performed using the IonFlux HT in a whole-cell, population patch configuration. See Golden et al. Assay Drug Dev. Technol. (2011) 9:608-619. The compounds were assessed for their ability to modulate the function of the human α7 nAChR stably expressed in a HEK cell line both in the presence, and in the absence of the natural α7 agonist acetylcholine. By performing a series of such measurements at different concentrations, the effective concentration of the α7 nAChR PAMs (EC50) was determined. See Spencer et al. Assay Drug Dev. Technol. (2012) 10:313-324.
Direct activation of α7 (agonism), and potentiation of acetylcholine-evoked α7 currents was determined as follows:
Automated Patch-Clamp Electrophysiology Functional Assay (Assay A)
Automated patch-clamp electrophysiology was performed using the IonFlux HT (Fluxion Biosciences Inc., San Francisco, Calif.) in the whole-cell, population patch configuration. Test compounds were assessed for their ability to modulate the function of the α7 nicotinic acetylcholine receptor both in the presence, and in the absence of the natural α7 agonist acetylcholine. A HEK cell line stably expressing both human RIC-3 and human α7 (PrecisION hnAChR α7/RIC-3, Eurofins Pharma, St. Charles, Mo.) was cultured in 175 cm^2 triple-layer tissue culture flasks to no more than 90% confluency in DMEM/F-12 growth media supplemented with 10% heat-inactivated fetal bovine serum, 1% non-essential amino acids, 0.625 μg/mL Puromycin, and 400 μg/mL Geneticin. Immediately prior to assay, cells were detached by first aspirating growth media, rinsing with Dulbecco's phosphate buffered saline, and then adding 10 mL of Accutase (Innovative Cell Technologies, San Diego, Calif.) to the flask and then incubating at 37° C. for 5 minutes. Detached cells were then recovered by the addition of 40 mL of CHO-serum-free media supplemented with 25 mM HEPES, and rocked gently in a 50 mL conical tube for 20 minutes prior to patch-clamp assay. After recovery, cells were pelleted by centrifugation at 1,000 RPM for 1 minute in a compact bench top centrifuge; recovery media was aspirated and cells were resuspended in external recording solution (150 mM NaCl, 5 mM KCl, 2 mM CaCl2, 1 mM MgCl2, 10 mM HEPES, 12 mM dextrose) to a density of 5.0×10^6 cells/mL. The cell suspension was added to the cell inlet wells on an IonFlux HT population patch plate which had previously been rinsed and primed with deionized H2O. Test compounds were serially diluted in DMSO and then resuspended to the final test concentration in external recording solution, with, or without 40 μM acetylcholine added to the external recording solution; test compounds were then transferred to the IonFlux HT population patch plate. Internal recording solution (110 mM TrisPO4, 28 mM TrisBase, 0.1 mM CaCl2, 2 mM MgCl2, 11 mM EGTA, 4 mM MgATP) was added to the internal recording solution inlet wells on the IonFlux HT patch plate previously loaded with cells and test compounds, and the plate loaded into the IonFlux HT instrument. A protocol was executed on the IonFlux HT to trap the cells, break into the cells, and establish the whole-cell recording configuration; cells were voltage-clamped at a holding potential of −60 mV for the duration of the experiment, all experiments were conducted at room temperature, and the IonFlux HT injection pressure was 8 psi for solution applications. Upon establishing the whole-cell configuration, external recording solution was perfused into the recording chambers for 120 seconds and then 40 μM acetylcholine was applied for 1 second and immediately washed off with external recording solution for 60 seconds. […]
In general terms: The patch-clamp technique gives a direct electrical read-out from membranes.

Where [1] appears, read: read-out: α7 nAChR EC50, HEK cell line stably expressing human α7 and human RIC-3, 40 μM acetylcholine, holding potential −60 mV, room temperature.
The mark [2] stands for this setting: read-out: α7 nAChR Potency, automated patch-clamp electrophysiology functional assay (Assay A), potency class by EC50.

Read-outs that look alike come from different tables or passages of the source.

Take `CC1(C)C(c2ccc(S(N)(=O)=O)cc2)C1c1nnc(-c2ccc(F)cc2F)s1` (stereo not drawn): the EC50 reads like this: under setting [1], 0.82 µM; under setting [2], 0.5 to 5 µM.

With `NS(=O)(=O)c1ccc([C@H]2C[C@@H]2c2nc(-c3ccccc3)co2)cc1` (relative stereo), under setting [2], the EC50 is 0.5 to 5 µM.

Consider `NS(=O)(=O)c1ccc([C@H]2C[C@@H]2c2nc(-c3cccc(F)c3)cs2)cc1`, for which the EC50 was 4.9 µM under setting [1] and 0.5 to 5 µM under setting [2].

With `Cc1ccc(F)cc1-c1noc([C@@H]2[C@@H](c3ccc(S(N)(=O)=O)cc3)C2(C)C)n1` (relative stereo), under setting [2], the EC50 lay within 0.5 to 5 µM.

For the molecule `COc1ccc(Cl)cc1-c1noc([C@H]2C[C@@H]2c2ccc(S(N)(=O)=O)cc2)n1`, the EC50 under setting [2] lay in the range of 5 to 50 µM.

As to `NS(=O)(=O)c1ccc([C@H]2C[C@@H]2c2ncc(-c3cccc(F)c3)s2)cc1` (relative stereo), the EC50 was 1.6 µM under setting [1] and 0.5 to 5 µM under setting [2].
